PMC7811517, “Human neuronal signaling and communication assays to assess functional neurotoxicity” (Archives of Toxicology, 2020)

The chains behind the UniProt entries cited, without tags or fusion partners.
UniProt Q01959, whole entry: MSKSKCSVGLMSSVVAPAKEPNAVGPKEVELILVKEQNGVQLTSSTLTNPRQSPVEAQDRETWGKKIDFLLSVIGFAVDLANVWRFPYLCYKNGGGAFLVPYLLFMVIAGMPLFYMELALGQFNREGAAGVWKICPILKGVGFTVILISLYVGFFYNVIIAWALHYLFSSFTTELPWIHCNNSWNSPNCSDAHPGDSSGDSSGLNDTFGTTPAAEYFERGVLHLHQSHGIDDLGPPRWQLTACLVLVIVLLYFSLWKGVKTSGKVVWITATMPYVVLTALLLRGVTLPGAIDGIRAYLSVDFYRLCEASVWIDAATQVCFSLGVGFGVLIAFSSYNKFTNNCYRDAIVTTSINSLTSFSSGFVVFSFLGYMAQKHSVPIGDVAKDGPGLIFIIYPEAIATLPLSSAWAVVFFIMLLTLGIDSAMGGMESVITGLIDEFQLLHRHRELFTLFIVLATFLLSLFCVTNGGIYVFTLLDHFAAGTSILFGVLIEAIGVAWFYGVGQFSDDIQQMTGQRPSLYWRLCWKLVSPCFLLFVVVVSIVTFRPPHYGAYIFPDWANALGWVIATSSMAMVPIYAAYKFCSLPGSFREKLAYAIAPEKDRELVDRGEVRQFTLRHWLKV

Target: dopamine transporter (DAT) (Homo sapiens, UniProt Q01959)
Format: cell-based

## c1ccc(CCCN2CCN(CCOC(c3ccccc3)c3ccccc3)CC2)cc1 [GBR12935]
  effect on uptake of [3H]DA: inhibited; also recorded: significantly reduced

Entries after “also recorded” stand apart in the source; their conditions may differ.
